Measurements taken from US9586950B2 (MERCK SHARP & DOHME CORP., priority 2012, dated 2017).

Biological target: hOX1R (orexin-1 receptor) (Rattus norvegicus, UniProt P56718)
Assay: FLIPR Ca2+ Flux Assay, hOX1R FLIPR
Type: cell-based
Details: CHO cells, 70 pM Ala-6,12 human orexin-A agonist
Method: In a typical experiment the OX1 and OX2 receptor antagonistic activity of the compounds of the present invention was determined in accordance with the following experimental method. For intracellular calcium measurements, Chinese hamster ovary (CHO) cells expressing the rat orexin-1 receptor or the human orexin-2 receptor, are grown in Iscove's modified DMEM containing 2 mM L-glutamine, […], 1% hypoxanthine-thymidine supplement, 100 U/ml penicillin, 100 μg/ml streptomycin and 10% heat-inactivated fetal calf serum (FCS). The cells are seeded at 20,000 cells/well into Becton-Dickinson black 384-well clear bottom sterile plates coated with poly-D-lysine. All reagents were from GIBCO-Invitrogen Corp. The seeded plates are incubated overnight at 37° C. and 5% CO2. Ala-6,12 human orexin-A as the agonist is prepared as a 1 mM stock solution in 1% bovine serum albumin (BSA) and diluted in assay buffer (HBSS containing 20 mM HEPES, 0.1% BSA and 2.5 mM probenecid, pH7.4) for use in the assay at a final concentration of 70 pM. Test compounds are prepared as 10 mM stock solution in DMSO, then diluted in 384-well plates, first in DMSO, then assay buffer. On the day of the assay, cells are washed 3 times with 100 μl assay buffer and then incubated for 60 min (37° C., 5% CO2) in 60 μl assay buffer containing 1 μM Fluo-4AM ester, 0.02% pluronic acid, and 1% BSA. The dye loading solution is then aspirated and cells are washed 3 times with 100 μl assay buffer. 30 μl of that same buffer is left in each well. Within the Fluorescent Imaging Plate Reader (FLIPR, Molecular Devices), test compounds are added to the plate in a volume of 25 μl, incubated for 5 min and finally 25 μl of agonist is added. Fluorescence is measured for each well at 1 second intervals for 5 minutes and the height of each fluorescence peak is compared to the height of the fluorescence peak induced by 70 pM Ala-6,12 orexin-A with buffer in place of antagonist. […] Alternatively, compound potency can be assessed by a radioligand binding assay (described in Bergman et. al. Bioorg. Med. Chem. Lett. 2008, 18, 1425-1430) in which the inhibition constant (Ki) is determined in membranes prepared from CHO cells expressing either the OX1 or OX2 receptor. The intrinsic orexin receptor antagonist activity of a compound which may be used in the present invention may be determined by these assays.

Row | Structure (SMILES) | IC50 [µM]
1 | COC(=O)c1c(C#N)ccnc1O[C@@H]1CC[C@@H](C)N(C(=O)c2c(F)cccc2-c2noc(C)n2)C1 [Example 14, methyl 4-cyano-2-{[(3R,6R)-1-{[2-fluoro-6-(5-methyl-1,2,4-oxadiazol-3-yl)phenyl]carbonyl}-6-methylpiperidin-3-yl]oxy}pyridine-3-carboxylate] | 1.68
2 | COC(=O)c1c(C#N)ccnc1O[C@@H]1CC[C@@H](C)N(C(=O)c2ccccc2C2CCC2)C1 [Example 26, Methyl 4-cyano-2-(((3R,6R)-1-(2-cyclobutylbenzoyl)-6-methylpiperidin-3-yl)oxy)nicotinate] | 1.1
3 | COC(=O)c1c(C#N)ccnc1O[C@@H]1CC[C@@H](C)N(C(=O)c2cccc(C)c2-n2nccn2)C1 [Example 16, methyl 4-cyano-2-{[(3R,6R)-6-methyl-1-{[3-methyl-2-(2H-1,2,3-triazol-2-yl)phenyl]carbonyl}piperidin-3-yl]oxy}pyridine-3-carboxylate] | 0.368
4 | COC(=O)c1c(C#N)ccnc1O[C@@H]1CC[C@@H](C)N(C(=O)c2c(F)cccc2-c2nc(C)no2)C1 [Example 9, methyl 4-cyano-2-{[(3R,6R)-1-{[2-fluoro-6-(3-methyl-1,2,4-oxadiazol-5-yl)phenyl]carbonyl}-6-methylpiperidin-3-yl]oxy}pyridine-3-carboxylate] | 1.89
5 | COC(=O)c1c(C#N)ccnc1O[C@@H]1CC[C@@H](C)N(C(=O)c2c(F)cccc2-c2ncccn2)C1 [Example 24, methyl 4-cyano-2-({(3R,6R)-1-[(2-fluoro-6-pyrimidin-2-ylphenyl)carbonyl]-6-methylpiperidin-3-yl}oxy)pyridine-3-carboxylate] | 0.38
6 | COC(=O)c1c(C#N)ccnc1O[C@@H]1CC[C@@H](C)N(C(=O)c2cccc(F)c2-c2ncccn2)C1 [Example 21, methyl 4-cyano-2-({(3R,6R)-1-[(3-fluoro-2-pyrimidin-2-ylphenyl)carbonyl]-6-methylpiperidin-3-yl}oxy)pyridine-3-carboxylate] | 0.855
7 | COC(=O)c1c(C#N)ccnc1O[C@@H]1CC[C@@H](C)N(C(=O)c2ccc(F)cc2-c2noc(C)n2)C1 [Example 12, methyl 4-cyano-2-{[(3R,6R)-1-{[4-fluoro-2-(5-methyl-1,2,4-oxadiazol-3-yl)phenyl]carbonyl}-6-methylpiperidin-3-yl]oxy}pyridine-3-carboxylate] | 2.53
8 | COC(=O)c1c(C#N)ccnc1O[C@@H]1CC[C@@H](C)N(C(=O)c2ccc(OC)nc2-n2nccn2)C1 [Example 3, methyl 4-cyano-2-{[(3R,6R)-1-{[6-methoxy-2-(2H-1,2,3-triazol-2-yl)pyridin-3-yl]carbonyl}-6-methylpiperidin-3-yl]oxy}pyridine-3-carboxylate] | 10
9 | COC(=O)c1c(C#N)ccnc1O[C@@H]1CC[C@@H](C)N(C(=O)c2ccc(C)cc2-n2nccn2)C1 [Example 17, methyl 4-cyano-2-{[(3R,6R)-6-methyl-1-{[4-methyl-2-(2H-1,2,3-triazol-2-yl)phenyl]carbonyl}piperidin-3-yl]oxy}pyridine-3-carboxylate] | 1.44
